## Measured affinities in a library of Ab-14 light chain variants

Values reported by Engelhart et al. 2022, doi:10.1038/s41597-022-01779-4 (FLAb copy).

Antigen: PDVDLGDISGINAS, a 14-residue peptide of the SARS-CoV-2 spike HR2 region.

The variants keep the heavy chain, the linker and the frameworks of Ab-14 (scFv order VH, three GGGGS repeats, VL).
VH: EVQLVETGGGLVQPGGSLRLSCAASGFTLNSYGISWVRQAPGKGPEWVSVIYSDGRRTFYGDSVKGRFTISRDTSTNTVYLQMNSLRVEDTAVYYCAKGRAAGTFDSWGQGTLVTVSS
VL: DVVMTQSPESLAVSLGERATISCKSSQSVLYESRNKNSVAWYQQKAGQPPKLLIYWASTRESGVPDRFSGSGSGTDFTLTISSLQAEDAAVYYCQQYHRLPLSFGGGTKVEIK

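AAYL50 was designed without a model: most single CDR substitutions and a random sample of double and triple ones. AlphaSeq pools MATa yeast showing the antibodies with MATalpha yeast showing the peptide. After mating in shaken culture at 30 °C for 16 h, diploids were selected and their barcode pairs sequenced. The ratio of observed to expected reads was calibrated, replicate by replicate, on BCL2-family standards whose Kd was known from biolayer interferometry. Each pool was mated in three replicate cultures.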

The parent's light chain CDRs are KSSQSVLYESRNKNSVA, WASTRES, QQYHRLPLS; each variant's own CDRs replace them letter for letter. This list gathers variants with a substitution at Q95 (VL, numbered from residue 1). The read-out is the apparent dissociation constant on a log10 scale (nM): the lower, the stronger. Averages over replicates are reported, and they cover detected replicates only. An entry "nd" has no value in the source: the pair was not observed among the diploids in any replicate. This suggests poor binding but is not conclusive. For reference, the parent read 0.65 as the reference entry and 1.68 as a member of this library. Background: pairings of library AAYL50 with three empty control strains gave a value in 18% of cases (median 4.19, 5th percentile 2.99). Values in that range, when seen in few replicates, are hard to tell from nonspecific mating.

With KSSQSVLYESRNKNSVA | TASTRES | PQYHRLPIS the result was 1.30 (3 of 3 replicates). The variant KSSQSVLYESRNANSVA | WASTRIS | PQYHRLPLS showed nd (0 of 3 replicates). The variant KSSQSVFYESRNKNSHA | WASTRES | YQYHRLPLS showed 4.75 (2 of 3 replicates). For KSSQSVLYESRNKNSVA | WASTRES | WQYSRLPLS, the assay gave nd (0 of 3 replicates). The variant KSSQSVLDESRNKNSVA | WASTREL | KQYHRLPLS showed 4.71 (2 of 3 replicates). The variant KSSQSVLYESINKNSVA | WASTRER | KQYHRLPLS showed 3.51 (1 of 3 replicates). The variant KSSQSVLYESRNKNSKA | WASTRES | KQYHRLPLS gave nd (0 of 3 replicates). The variant KSSQSVLYESRNKNSVA | WASTRRS | YQYHRLPLW showed nd (0 of 3 replicates).

For KSSQSVLYESRNKNSVA | WWSTRGS | YQYHRLPLS, the assay gave 3.29 (1 of 3 replicates). For KSSQSVRDESRNKNSVA | WASTRES | AQYHRLPLS, the assay gave 0.86 (3 of 3 replicates). The variant KSSQSVLYESRNKNAVA | WASTREF | CQYHRLPLS showed 3.63 (2 of 3 replicates). For KSSQSVLYESRNKNSDR | WASTRES | RQYHRLPLS, the assay gave 4.55 (1 of 3 replicates). The variant KSSQSVLYESRNKNSVV | WASTRES | AQYHRLPLS gave nd (0 of 3 replicates). The variant KSSQSVPYESRNKNSVA | WASTRES | HQRHRLPLS gave 4.12 (1 of 3 replicates). With KSSQSVLYESRNKNSVA | WASTRNS | NIYHRLPLS the result was 0.75 (3 of 3 replicates). The variant KSSQSVLYESRNKNSVA | WGSTRES | CEYHRLPLS showed 4.79 (2 of 3 replicates).

The variant KSSQSVLYLSRNKNSVA | WASTRES | TQYHRLALS showed 3.14 (3 of 3 replicates). With KSSQAVLYESRNKSSVA | WASTRES | SQYHRLPLS the result was 1.15 (3 of 3 replicates). With MSSQSVLYESRNKNSVA | WALTRES | VQYHRLPLS the result was nd (0 of 3 replicates). With KSSQSVLYESRNKNSVA | WASMRED | PQYHRLPLS the result was nd (0 of 3 replicates). The variant KSSQSVLYESRGKNSVA | WASTRES | IQYHRVPLS showed 3.67 (3 of 3 replicates). With KSSQSVLYESRNKNSVA | WASTREF | SQYQRLPLS the result was 3.09 (1 of 3 replicates). The variant KSSQSVLYESRNKNSVA | WASTRCS | RQYHREPLS showed 0.75 (3 of 3 replicates). The variant KSSQSVLYESRNKNSVA | WASDRES | DQIHRLPLS showed 4.54 (2 of 3 replicates).

For KSSQSVLYESRNKNSVA | WADTRES | AQYHRSPLS, the assay gave 4.02 (1 of 3 replicates). The variant KSSQSVLFESRNKNSVA | WASTRES | AQYHRLPLS gave 2.82 (3 of 3 replicates). For KSSQSVLYESRNKNSVA | WVSTRES | FQYCRLPLS, the assay gave 1.94 (1 of 3 replicates). For KSSQSVLYESRNKNSVA | WASTRES | SQYHHLPNS, the assay gave 3.33 (2 of 3 replicates). With KSSQSVLYESRNKNSVA | WASTRES | VQYHRLPSS the result was 1.65 (3 of 3 replicates). With KSSQSVLYESRNKNSVA | WASTNES | NQYHRLPLS the result was nd (0 of 3 replicates). The variant KSSQMVLYESRNKNSVA | WASTRES | AQYHFLPLS showed nd (0 of 3 replicates). The variant KSSQRVLFESRNKNSVA | WASTRES | WQYHRLPLS gave 5.69 (1 of 3 replicates).

For KSSGSVLYESRNKNKVA | WASTRES | WQYHRLPLS, the assay gave nd (0 of 3 replicates). For KSSQSVLYESRNKNSVA | WASTRSS | CQYHRLPLW, the assay gave nd (0 of 3 replicates). For KSSQSVLYESRNKGDVA | WASTRES | NQYHRLPLS, the assay gave nd (0 of 3 replicates). The variant CSSQSVLYESRNKNSVA | HASTRES | KQYHRLPLS showed 1.10 (3 of 3 replicates). For KSTQSVLYISRNKNSVA | WASTRES | YQYHRLPLS, the assay gave 3.43 (1 of 3 replicates). With KSSQSVCYESRNKNSWA | WASTRES | HQYHRLPLS the result was 4.44 (1 of 3 replicates). The variant KSSQSVLYESRNKNGVA | WASTRES | AQYHSLPLS showed nd (0 of 3 replicates). The variant KSSQSVLYESMNKNSVA | WASTRES | AQYPRLPLS gave 4.38 (2 of 3 replicates).

With KSSRSVLYESRNKNSVA | WARTRES | FQYHRLPLS the result was 2.21 (3 of 3 replicates). With KSSQSVLYESQNKNSIA | WASTRES | YQYHRLPLS the result was nd (0 of 3 replicates).

Excerpt, the final 6 entries:

The variant KSTQSVLYISRNKNSVA | WASTRES | YQYHRLPLS gave 3.43 (1 of 3 replicates).
The variant KSSQSVCYESRNKNSWA | WASTRES | HQYHRLPLS gave 4.44 (1 of 3 replicates).
The variant KSSQSVLYESRNKNGVA | WASTRES | AQYHSLPLS gave nd (0 of 3 replicates).
The variant KSSQSVLYESMNKNSVA | WASTRES | AQYPRLPLS gave 4.38 (2 of 3 replicates).
The variant KSSRSVLYESRNKNSVA | WARTRES | FQYHRLPLS gave 2.21 (3 of 3 replicates).
The variant KSSQSVLYESQNKNSIA | WASTRES | YQYHRLPLS gave nd (0 of 3 replicates).